We go through 1 compound from US8153631B2, “Triazole compounds and uses related thereto” (Amgen Inc., priority 2003, dated 2012).

By UniProt entry, the sequences of proteins in these tests, tags left out.
UniProt P28845, whole entry: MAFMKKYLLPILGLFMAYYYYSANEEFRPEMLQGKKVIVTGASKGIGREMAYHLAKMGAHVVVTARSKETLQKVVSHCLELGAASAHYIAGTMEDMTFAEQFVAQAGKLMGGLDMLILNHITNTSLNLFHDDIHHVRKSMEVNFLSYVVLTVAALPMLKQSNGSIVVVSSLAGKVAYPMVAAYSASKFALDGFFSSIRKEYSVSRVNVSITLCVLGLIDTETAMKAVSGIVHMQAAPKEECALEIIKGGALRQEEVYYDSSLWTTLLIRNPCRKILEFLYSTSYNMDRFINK

In the test the target is human HSD1 (recombinant HSD1) (Homo sapiens, UniProt P28845). The test can be described thus: In vitro HSD1 activity inhibitory action, SPA of cortisone to cortisol conversion. The following applies: read-out: hHSD1 IC50, recombinant human HSD1 0.1 μg/ml, 500 μM NADPH, 16 nM 3H cortisone, room temperature 90 min. On the procedure:
In Vitro HSD1 (Hydroxysteroid Dehydrogenase 1) Activity Inhibitory Action
The HSD1 inhibitory activity was examined by quantitative determination by an SPA (scintillation proximity assay) system of the suppressive action on the conversion from cortisone to cortisol using human HSD1 (hereinafter recombinant HSD1) expressed using a baculo-virus system as an enzyme source. For the reaction, a reagent was added to a 96 well plate (96 well Opti-plates™-96 (Packard)) to the following final concentration and a volume of 100 μl was reacted at room temperature for 90 min. The reaction solution used was 0.1 μg/ml recombinant HSD1, 500 μM NADPH, 16 nM ^3H cortisone (Amersham Biosciences, 1.78 Tbq/mol) dissolved in 0.1% BSA (Sigma)-containing PBS and the test drug was 2 μl of a compound solution (dissolved in DMSO). […] After the completion of the reaction, the plate was incubated overnight at room temperature and the radioactivity was measured by Topcount (Packard). […] The inhibition (%) of the test drug was calculated by ((value of control−value of test drug)/(value of control−value of positive control))×100 (%). The IC50 value was analyzed using a computer-based curve fitting soft.

For `CC(=O)OC1CCN(c2ccc(-c3nnc(C4(c5ccccc5)CC4)n3C)c(Cl)c2)CC1`, the IC50 is less than 10 nM.
